Values of other authors, collected in patent US20250099481A1, “BCL-2 INHIBITORS” (Newave Pharmaceutical Inc., priority 2022, published 2025).

By UniProt entry, the sequences of proteins in these tests, tags left out.
UniProt P10415, whole entry: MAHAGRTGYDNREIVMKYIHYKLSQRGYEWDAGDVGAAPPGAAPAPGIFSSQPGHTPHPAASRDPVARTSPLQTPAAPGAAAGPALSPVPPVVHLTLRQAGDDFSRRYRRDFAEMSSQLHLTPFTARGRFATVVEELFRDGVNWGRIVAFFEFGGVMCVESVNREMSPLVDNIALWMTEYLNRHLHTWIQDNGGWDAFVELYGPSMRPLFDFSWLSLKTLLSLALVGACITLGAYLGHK

Biological target: Bcl-2 (Homo sapiens, UniProt P10415)

- pKi: > 9.00
SMILES: CC1(C)CCC(c2ccc(Cl)cc2)=C(CN2CCN(c3ccc(C(=O)NS(=O)(=O)c4ccc(N[C@H](CCN5CCOCC5)CSc5ccccc5)c(S(=O)(=O)C(F)(F)F)c4)cc3)CC2)C1 [ABT-263]

pKi: −log10 of the molar value.
